Data: US20240182465A1 (GENFLEET THERAPEUTICS (SHANGHAI) INC., priority 2021, published 2024)

The chains behind the UniProt entries cited, without tags or fusion partners. Residues count along the entry.
UniProt Q92918, 1-346 limits assumed: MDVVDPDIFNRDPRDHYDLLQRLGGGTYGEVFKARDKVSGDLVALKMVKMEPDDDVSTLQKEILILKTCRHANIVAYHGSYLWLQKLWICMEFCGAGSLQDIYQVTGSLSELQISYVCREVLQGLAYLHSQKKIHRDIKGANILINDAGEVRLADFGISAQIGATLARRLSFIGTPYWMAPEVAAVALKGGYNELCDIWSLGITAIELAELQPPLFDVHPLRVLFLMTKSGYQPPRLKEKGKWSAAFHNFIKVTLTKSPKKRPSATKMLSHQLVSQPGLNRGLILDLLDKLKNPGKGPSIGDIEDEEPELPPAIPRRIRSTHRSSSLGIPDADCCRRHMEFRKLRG
UniProt Q92918, whole entry: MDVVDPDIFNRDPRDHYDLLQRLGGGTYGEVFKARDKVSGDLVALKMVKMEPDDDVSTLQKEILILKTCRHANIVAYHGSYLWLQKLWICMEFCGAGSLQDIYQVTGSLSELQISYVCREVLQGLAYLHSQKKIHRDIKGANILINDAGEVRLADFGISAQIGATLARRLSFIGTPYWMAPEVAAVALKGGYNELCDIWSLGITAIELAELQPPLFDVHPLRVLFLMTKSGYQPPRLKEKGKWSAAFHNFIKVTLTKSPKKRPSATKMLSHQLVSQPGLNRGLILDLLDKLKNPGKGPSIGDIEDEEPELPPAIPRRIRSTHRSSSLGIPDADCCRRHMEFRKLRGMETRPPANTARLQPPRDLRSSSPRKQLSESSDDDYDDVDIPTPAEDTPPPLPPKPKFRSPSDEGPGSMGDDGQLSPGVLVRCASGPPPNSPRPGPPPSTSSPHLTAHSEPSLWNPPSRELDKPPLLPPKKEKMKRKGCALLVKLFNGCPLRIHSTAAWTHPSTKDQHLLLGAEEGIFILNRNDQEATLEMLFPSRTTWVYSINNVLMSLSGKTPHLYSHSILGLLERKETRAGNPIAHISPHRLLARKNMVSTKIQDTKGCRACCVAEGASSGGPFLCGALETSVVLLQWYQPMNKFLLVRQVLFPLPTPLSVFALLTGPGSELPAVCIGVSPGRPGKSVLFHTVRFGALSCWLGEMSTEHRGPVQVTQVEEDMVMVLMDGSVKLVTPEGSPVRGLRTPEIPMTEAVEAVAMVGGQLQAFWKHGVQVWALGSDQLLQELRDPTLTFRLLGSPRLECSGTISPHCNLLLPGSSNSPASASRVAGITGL

What was measured:
[1] = biological target: T1, HPK1 (Homo sapiens, UniProt Q92918); test: HPK1 kinase activity assay (ADP-Glo); settings: HPK1 Kinase activity IC50 (nM), 1 nM HPK1, 10 μM ATP, 0.1 μg/μL MBP
[2] = biological target: T1, HPK1; test: SLP76 phosphorylation assay (intracellular HPK1 inhibitory activity, p-SLP76 Ser376 sandwich ELISA); settings: p-SLP76 IC50(nM), Jurkat, Clone E6-1 cells; 1 h compound pre-incubation, anti-CD3 beads stimulation 20 min; SLP76 phosphorylation at S376

`Cc1c[nH]c2ncc(-c3cc4c(c([C@@H]5CCCN5)c3)CN(C(=O)C(O)(C(F)(F)F)C(F)(F)F)CC4)cc12` [Compound Z297, (S)-3,3,3-trifluoro-2-hydroxy-1-(6-(3-methyl-1H-pyrrolo[2,3-b]pyridin-5-yl)-8-(pyrrolidin-2-yl)-3,4-dihydroisoquinolin-2(1H)-yl)-2-(trifluoromethyl)propan-1-one] showed an IC50 [1] of 2.37 nM and an IC50 [2] of 1010 nM.
